Data as given in patent US10746738B2, “Claudin-1 peptide reagents and methods” (THE REGENTS OF THE UNIVERSITY OF MICHIGAN, priority 2015, dated 2020).
Entries after “also recorded” stand apart in the source; their conditions may differ.

What was measured:
[1] = system: proximal human colon specimens; assay: Immunofluorescence of proximal human colon with claudin-1 peptide and antibody
Description: Formalin-fixed, paraffin-embedded (FFPE) specimens from human proximal colon were obtained from the archived tissue bank in the Department of Pathology at the University of Michigan. 5 μm thick sections were cut, mounted onto glass slides (Superfrost Plus, Fischer Scientific). The tissues were deparaffinized using a standard protocol. The sections were incubated with 3 rounds of xylene (3 min each) and 2 rounds of 100% and 95% ethanol (2 min each), and hydrated with water for 5 min. Antigen retrieval was performed with 10 mM citric acid buffer containing 0.05% Tween 20; pH 6.0. The specimens were placed in a citric acid buffer, maintained at a sub-boiling temperature for 15 min, and then allowed to cool to RT for 30 min. […] Confocal fluorescence images were collected with using a 63× oil immersion objective (Leica TCS SP5 Microsystems). […]
The mean fluorescence intensities from 3 boxes with dimensions of 20×20 μm2 placed completely within the surface epithelium of each image was measured for RTS*-Cy5.5 using custom Matlab software (MathWorks Inc). […]
Co-localization of peptide and antibody binding can be appreciated on these merged images, and the extent is characterized by the Pearson's correlation coefficient ρ. We measured the fluorescence intensities from binding of the RTS*-Cy5.5 peptide in a set of 3 boxes with dimensions of 20×20 μm^2 located at random on cells in the epithelium.

SW620 cells = assay: Competitive binding assay with unlabeled peptide; type: cell-based, human
Description: SW620 cells were plated at 0.5×10^6 cells/mL on coverslips on 12-well plates. The following day, the cells were treated first with unlabeled RTS* peptide at 0, 25, 50, 100, 200, or 400 μM for 30 min at 4° C., washed with PBS, and then treated with 5 μM of RTS*-Cy5.5 for 30 min at 4° C. The cells were fixed with 4% PFA for 5 min at RT, washed, and counterstained with DAPI with Prolong Gold while placing on slides. Fluorescent images were collected with a Leica SP5× confocal microscope using a 63× (numerical aperture=1.4) oil-immersion objective. Fluorescence intensities were quantified via Matlab Software.
The specificity of peptide binding was also validated by competition assay. Cells were grown on cover glass and incubated first with unlabeled peptides with concentrations ranging from 0-400 μM, and then with the optimized peptide. The fluorescence intensities were measured with confocal microscopy. As an example, we evaluated binding of RTS*-Cy5.5 to SW620 cells on competition with addition of unlabeled RTS* and SPT* (control). We fit two-way ANOVA models with terms for the labeled peptide, concentrations of the unlabeled peptides and their interactions on log-transformed data. […] With this study design, analysis and effect sizes, as shown in FIG. 3A using triplicate slides, we have 100% power to obtain P<0.01 for differences between 0 and 400 nM for differences between RTS* and SPT*.

colonic dysplasia = assay: In vivo fluorescence endoscopy of colon in CPC;Apc mouse; details: n=10 dysplasias
Description: A genetically engineered mouse model (Cpc;Apc) that spontaneously forms adenomatous polyps in the colon was used for this study and handled according to Institutional Guidelines. The colons of anesthetized mice were first cleaned with water before imaging with a small animal endoscope (Karl Storz Veterinary Endoscope) using the white light channel to locate polyps by identifying anatomic landmarks and the distance of the endoscope tip from the anus. A 100 μM solution of either RTS*-Cy5.5 or SPT*-Cy5.5 was applied topically and allowed to incubate for 5 minutes before rinsing thoroughly with water to remove unbound peptide. Fluorescent and reflectance images were then collected with the same endoscope set to the appropriate channels. Once in vivo imaging was complete, four of the mice used in the study were euthanized and colons harvested. Polyps and flat lesions detected during fluorescence imaging were located, removed, and processed for histology (H&E).
Colonic dysplasia was detected on wide-field endoscopy in the colon of CPC;Apc mice. […] After administration of RTS*-Cy5.5, fluorescence images were collected. […] Based on the location of dysplastic lesions determined using fluorescence images collected with endoscopy, a pathologist measured the depth of dysplasia on histology, as shown by the dashed arrow in FIG. 7E. […]

T84 monolayers = assay: Transepithelial electrical resistance (TEER) and tight junction immunofluorescence; type: cell-based, human
Description: T84 human colon carcinoma cells were grown in a 1:1 mixture of DMEM and Ham's F-12 culture medium supplemented with 5% FBS. To establish polarized monolayer, the cells were plated on transwell permeable polyester supports (1.12 cm^2, pore size 3 μm, Costar) until they reached confluence after ˜3-4 days, as determined by an increase in TEER.43 The cells were continually grown on transwell supports until the TEER reached ˜2000 Ω-cm^2. Then, 5 μM of either RTS-Cy5.5 or control peptides were added. TEER was then measured at 6, 12 and 24 hours. The cells were fixed with 4% PFA for 12 min. After brief washing, 1% SDS in PBS was used to permeabilize the cells. These procedures were followed by 3% goat serum in PBS blocking for 30 min. Mouse anti-zonula occludens-1 (anti-ZO-1) (1:250, Life Technologies) and rabbit anti-claudin-1 (1:200, Life Technologies) antibodies were diluted in block buffer and incubated in humidity box overnight at 4° C. and fluorescent secondary antibodies were diluted to 1:1000 and incubated for 1 hour at RT. All images were obtained using Nikon A1 confocal microscope (MIL, University of Michigan).
We evaluated the effect of peptide binding on tight junction function using a polarized monolayer of T84 cells plated on transwell supports. We found high trans-epithelial electrical resistance (TEER) with either RTS* or SPT* for up to 24 hours, FIG. 12A. On immunofluorescence, we observed antibodies for zonula occludens-1 (ZO-1), FIG. 12B,E, and claudin-1, FIG. 12C,F, to localize to the cell junctions.

[2] = system: extracellular domain of claudin-1; assay: Phage display biopanning; type: binding, human; details: M13 library
Description: Peptide specific for CLDN1 were identified through the phage display technique using the PhD7 phage library (New England Biolabs, Ipswich, Mass.) according to the manufacturer's guidelines. The panning process was performed on 15 mm dishes coated with 0.1 mg/mL streptavidin, washed with TBST (Tris buffered saline (TBS) with 0.1% Tween-20), and blocked for 1 h at 4° C. with blocking buffer (0.1 M NaHCO3 with 0.5% bovine serum albumin (BSA) and 0.1 m/mL streptavidin). […] Unbound phage was collected after each clearing step and used in subsequent clearing steps. After the third and final round of clearing, phage were amplified and titered. To perform the biopanning process against CLDN1, the biotinylated CLDN1 ECD peptide was pre-complexed with 2×10^11 cleared, amplified phage before adding to a blocked streptavidin-coated dish for 30 minutes at RT with agitation. After 30 minutes, biotin was added at a final concentration of 0.1 mM for 5 minutes to bind any free streptavidin. Dishes were washed 10 times with TBST and weak binders were removed by eluting with elution buffer (0.2 M glycine, pH 2.2, with 1 mg/mL BSA) for 2 minutes. A second elution was performed for 13 minutes to elute strong binders. Eluate containing the strong binders was neutralized with neutralization buffer (1M Tris-HCl, pH 9.1), amplified, and titered before performing the next round of biopanning. […]

human colonic tissues = assay: Ex vivo staining of human colonic tissue sections
Description: Human colon tissue was obtained through consenting patents at the University of Michigan Hospital. Tissue was frozen in OCT and sectioned 10 μm thick using a Cryostat. The sections were thawed before staining with 10 μM RTS*-Cy5 for 15 minutes at RT. Tissues were then washed with PBS, fixed with 4% PFA for 10 min at RT, and counterstained with DAPI with Prolong Gold. Fluorescence was imaged and quantified as outlined above.
Specimens of normal colonic mucosa, adenoma, and adenocarcinoma from the right side (proximal) of the colon were obtained from routine surveillance colonoscopy and surgically removed by endoscopic mucosal resection. The tissues were frozen in OCT (Sakura Finetek), cut in 10 μm sections, and incubated with pep*-Cy5 (5 μM) in 1×PBS for 15 minutes at RT. The sections were washed 3× with PBS. Confocal fluorescence images were collected from these sections with DAPI, FITC and Cy5 filter sets (Leica TCS SP5 Microsystems).
The mean fluorescence intensities (±SEM) from binding of pep*-Cy5 were measured for normal colonic mucosa (n=4, 7±2 AU), adenoma (n=6, 26±4 AU) and adenocarcinoma (n=5, 31±4 AU), P<0.001, unpaired t-test (FIG. 6, scale bar 500 μm). […] We found pep*-Cy5 and anti-claudin-1 mAb to stain colonic adenomas and adenocarcinomas in 11/12 (92%) and 10/10 (100%) sections, respectively.

Q: For “RTS*-Cy5.5: RTSPSSR labeled at the C-terminus with Cy5.5 via a GGGSK linker”, which “mean fold-difference in fluorescence intensity” value ([1]; SSA versus normal) is on record?
A: Its value is 2.2.

Q: What about the “mean fold-difference in fluorescence intensity” value ([1]; adenoma versus normal) of the same substance?
A: Its value is 2.8.

Q: With RTSPSSR [RTS*] as the substance, how does the “competition for binding of RTS*-Cy5.5 to SW620 cells” value (SW620 cells; addition of unlabeled RTS* and SPT*) read?
A: Its value is “significant difference”.

Q: And the “concentration of unlabeled peptide at which significant differences in RTS*-Cy5.5 binding were observed” value (SW620 cells; unlabeled RTS* versus SPT* (control), 0-400 μM, then 5 μM RTS*-Cy5.5)?
A: Its value is at least 25 µM.

Q: What about the “fold change of T/B ratio versus SPT*” value (colonic dysplasia; paired t-test) of the same substance?
A: The value was 1.95 fold change.

Q: And the “T/B ratio (mean±SD)” value (colonic dysplasia; topical 100 μM, 5 minutes)?
A: Its value is 1.93±0.46.

Q: What about the “trans-epithelial electrical resistance (TEER)” value (T84 monolayers; 5 μM peptide, up to 24 hours) of the same substance?
A: Its value is “high”.

Q: What about the “effect on tight junction function and ZO-1 distribution” value (T84 monolayers; 24 hours after peptide incubation) of the same substance?
A: The value was “neither peptide alters tight junction function or ZO-1 distribution; also recorded: not altered”.

Q: What about the “localization of peptide in monolayer” value (T84 monolayers; T84 cells, by comparison to SPT*) of the same substance?
A: Its value is “localizes partially to cellular junctions; also recorded: partially localizes to cellular junctions”.

Q: What about the “enrichment after three rounds of biopanning” value [2] of the same substance?
A: Its value is “highest level of enrichment”.

Q: Which results are given for “pep*-Cy5: RTSPSSR labeled at the C-terminus with Cy5 via a GGGSK linker”?
A: T/B ratio (human colonic tissues; adenocarcinoma relative to normal): 4.4; T/B ratio (human colonic tissues; adenoma relative to normal): 3.7
